# Measured values: PubChem BioAssay AID602163 (The Scripps Research Institute Molecular Screening Center, 2012)
# The entries are a selection whose mix differs from that of the whole data set. Activity calls are given as the source filed them. No stated cut-off is given here; in the data, active means activation above about 7.5%; inactive means the rest.
# Tested on: Methionine sulfoxide reductase A (Bos taurus)
# Test: activation of methionine sulfoxide reductase A – biochemical, absorbance, bovine, HTS, primary screen (AID 602163);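 further: 0% = vehicle and 100% = reference activator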
# Details: purified bovine MsrA, absorbance read-out; at 10.6 µM; hits give high values
row,SMILES,activation
1,CC1=C2N=C(C=C3N=C(C(C)=C4[N-][C@@](C)([C@@H]5N=C1[C@](C)(CCC(=O)NC[C@@H](C)OP(=O)([O-])O[C@H]1[C@@H](O)[C@@H](n6cnc7cc(C)c(C)cc76)O[C@@H]1CO)[C@H]5CC(N)=O)[C@@](C)(CC(N)=O)[C@@H]4CCC(N)=O)[C@@](C)(CC(N)=O)[C@@H]3CCC(N)=O)C(C)(C)[C@@H]2CCC(N)=O.[C-]#N.[Co+3],inactive: -4.37%
